Active and inactive are the calls of the source. The calls are words filed in the database; no cut-off is given here.
What was measured:
[1] = target: T1, Thioredoxin reductase (Homo sapiens) (UniProt Q16881+Q9NNW7+Q86VQ6); test: Binding affinity to TrxR activity in human HeLa cell lysate after 30 mins incubation by pulldown/Western blotting analysis
HeLa [2] = test: Induction of TrxR protein expression in human HeLa cells at 1 uM after 24 hrs by Western blotting analysis
HeLa [3] = test: Induction of TrxR protein expression in human HeLa cells at 2 uM after 12 hrs by Western blotting analysis
HEK293 [4] = test: Cytotoxicity against HEK cells expressing IRES at 2 to 5 uM after 48 hrs by MTT assay; conditions: Homo sapiens
HL-60 [5] = test: Induction of apoptosis in human HL60 cells at 0.5 to 5 uM by annexin V-FITC/propidium iodide staining
Rattus norvegicus = organism: Rattus norvegicus; test: Inhibition of NADPH-reduced rat recombinant wild type TrxR at 40 nM after 30 mins by DTNB assay in presence of 1 mM GSH
HeLa [6] = test: Cytotoxicity against human HeLa cells transfected with shTrxR1 RNA at 2 to 5 uM after 48 hrs by MTT assay
HL-60 [7] = test: Reduction in cellular GSH in human HL60 cells assessed as intracellular GSH at 100 uM after 24 hrs relative to control; parameters: scale not given: the % may be the effect or the level left
HL-60 [8] = test: Induction of apoptosis in human HL60 cells assessed as increase in caspase 3 activity at 0.5 to 2 uM after 24 hrs by colorimetric assay
Homo sapiens = organism: Homo sapiens; test: Inhibition of glutathione peroxidase (unknown origin) at 10 uM
HL-60 [9] = test: Induction of apoptosis in human HL60 cells assessed as condensed and highly fluorescent nuclei at 0.5 to 2 uM after 24 hrs by Hoechst 33342 staining-based fluorescence microscopy
HL-60 [10] = test: Induction of ROS production in human HL60 cells assessed as relative fluorescence intensity at 1 uM for 30 mins incubation with 10 uM DCFH-DA after 1 to 2 hrs by fluorescence microscopy
[11] = target: T1, Thioredoxin reductase (Homo sapiens); test: Inhibition of human TrxR activity in living human HeLa cells after 4 hrs by TRFS-green based fluorescence microscopy imaging
HEK293 [12] = test: Cytotoxicity against HEK cells expressing TrxR1 at 2 to 5 uM after 48 hrs by MTT assay; conditions: Homo sapiens
HL-60 [13] = test: Induction of apoptosis in human HL60 cells after 12 to 24 hrs by annexin V-FITC/propidium iodide staining
HL-60 [14] = test: Induction of ROS production in human HL60 cells at 1 uM for 30 mins incubation with 10 uM DCFH-DA after 1 to 2 hrs by fluorescence microscopy
HL-60 [15] = test: Reduction in cellular thiols in human HL60 cells at 2 to 10 uM after 12 to 24 hrs by DTNB titration

Amino acid sequences for entries named in this document (tags omitted).
UniProt Q16881, whole entry, looked up: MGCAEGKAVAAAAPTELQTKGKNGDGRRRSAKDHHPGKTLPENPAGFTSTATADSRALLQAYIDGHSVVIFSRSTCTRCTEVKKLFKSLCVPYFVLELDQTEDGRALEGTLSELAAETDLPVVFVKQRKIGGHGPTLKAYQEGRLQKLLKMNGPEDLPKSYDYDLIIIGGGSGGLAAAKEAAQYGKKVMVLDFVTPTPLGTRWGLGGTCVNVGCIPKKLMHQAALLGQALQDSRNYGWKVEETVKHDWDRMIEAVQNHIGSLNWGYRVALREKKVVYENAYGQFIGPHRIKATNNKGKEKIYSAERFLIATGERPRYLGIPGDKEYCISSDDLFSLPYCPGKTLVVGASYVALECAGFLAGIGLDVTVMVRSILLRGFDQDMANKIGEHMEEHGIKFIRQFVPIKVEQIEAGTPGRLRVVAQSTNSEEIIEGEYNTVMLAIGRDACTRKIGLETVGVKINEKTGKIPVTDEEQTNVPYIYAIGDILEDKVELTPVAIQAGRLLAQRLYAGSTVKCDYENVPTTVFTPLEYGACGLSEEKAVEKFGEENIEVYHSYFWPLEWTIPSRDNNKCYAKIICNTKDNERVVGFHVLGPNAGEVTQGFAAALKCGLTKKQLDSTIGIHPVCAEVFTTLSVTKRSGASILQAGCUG
UniProt Q9NNW7, whole entry, looked up: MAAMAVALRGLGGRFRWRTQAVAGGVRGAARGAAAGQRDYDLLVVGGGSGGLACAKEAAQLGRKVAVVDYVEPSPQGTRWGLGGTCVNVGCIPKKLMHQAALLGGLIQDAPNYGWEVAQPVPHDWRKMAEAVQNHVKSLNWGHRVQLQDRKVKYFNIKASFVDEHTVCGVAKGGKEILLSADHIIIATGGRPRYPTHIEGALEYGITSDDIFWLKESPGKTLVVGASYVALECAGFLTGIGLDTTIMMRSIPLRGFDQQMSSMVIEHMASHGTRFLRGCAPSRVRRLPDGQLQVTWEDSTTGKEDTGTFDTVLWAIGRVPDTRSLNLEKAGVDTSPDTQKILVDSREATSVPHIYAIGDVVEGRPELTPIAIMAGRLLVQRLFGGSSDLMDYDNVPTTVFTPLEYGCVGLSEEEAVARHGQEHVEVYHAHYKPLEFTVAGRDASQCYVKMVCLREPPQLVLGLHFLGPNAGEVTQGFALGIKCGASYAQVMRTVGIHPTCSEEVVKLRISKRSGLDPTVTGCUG
UniProt Q86VQ6, whole entry, looked up: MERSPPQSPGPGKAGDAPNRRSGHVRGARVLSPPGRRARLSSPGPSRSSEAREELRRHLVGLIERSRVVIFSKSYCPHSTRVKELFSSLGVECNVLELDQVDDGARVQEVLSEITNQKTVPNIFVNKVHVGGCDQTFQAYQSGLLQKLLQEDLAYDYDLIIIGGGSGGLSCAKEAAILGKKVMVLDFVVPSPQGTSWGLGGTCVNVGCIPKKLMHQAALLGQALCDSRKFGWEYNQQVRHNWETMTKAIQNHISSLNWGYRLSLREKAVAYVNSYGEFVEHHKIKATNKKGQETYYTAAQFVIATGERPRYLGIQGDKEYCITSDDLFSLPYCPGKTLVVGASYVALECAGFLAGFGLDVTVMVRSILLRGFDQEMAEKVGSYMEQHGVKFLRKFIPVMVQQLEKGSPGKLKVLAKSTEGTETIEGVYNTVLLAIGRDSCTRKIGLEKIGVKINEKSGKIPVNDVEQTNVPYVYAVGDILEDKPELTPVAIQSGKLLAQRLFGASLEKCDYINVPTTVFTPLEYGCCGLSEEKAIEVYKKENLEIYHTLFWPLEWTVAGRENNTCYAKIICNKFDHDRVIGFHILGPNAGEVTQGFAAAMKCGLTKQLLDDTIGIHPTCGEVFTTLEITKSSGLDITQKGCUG

Compound: Nc1ccc([As]2SCCCS2)cc1
- Activity [1]: Active
- Activity (HeLa [2]): Active
- Activity (HeLa [3]): Active
- Activity (HEK293 [4]): Active
- Activity (HL-60 [5]): tde
- inhibition (Rattus norvegicus): Active
- Activity (HeLa [6]): Active
- Activity (HL-60 [7]): < 20%
- Activity (HL-60 [8]): Active
- inhibition (Homo sapiens): inactive
- Activity (HL-60 [9]): Active
- Activity (HL-60 [10]): Active
- inhibition [11]: Active
- Activity (HEK293 [12]): Active
- Activity (HL-60 [13]): Dose-dependent effect
- Activity (HL-60 [14]): Active
- inhibition (HL-60 [15]): Active
